Data from ChEMBL document CHEMBL1135393, “Design, synthesis, and discovery of novel trans-stilbene analogues as potent and selective human cytochrome P450 1B1 inhibitors” (J Med Chem, 2002).

Assays:
Cytochrome P450 1B1 = molecular target: T1, Cytochrome P450 1B1 (Homo sapiens, UniProt Q16678); test: Inhibition of ethoxyresorufin O-deethylation (EROD) in bicistronic bacterial membranes expressing human cytochrome P450 1B1; type: ADME, cell membranes
T1 sequence (Q16678 whole entry): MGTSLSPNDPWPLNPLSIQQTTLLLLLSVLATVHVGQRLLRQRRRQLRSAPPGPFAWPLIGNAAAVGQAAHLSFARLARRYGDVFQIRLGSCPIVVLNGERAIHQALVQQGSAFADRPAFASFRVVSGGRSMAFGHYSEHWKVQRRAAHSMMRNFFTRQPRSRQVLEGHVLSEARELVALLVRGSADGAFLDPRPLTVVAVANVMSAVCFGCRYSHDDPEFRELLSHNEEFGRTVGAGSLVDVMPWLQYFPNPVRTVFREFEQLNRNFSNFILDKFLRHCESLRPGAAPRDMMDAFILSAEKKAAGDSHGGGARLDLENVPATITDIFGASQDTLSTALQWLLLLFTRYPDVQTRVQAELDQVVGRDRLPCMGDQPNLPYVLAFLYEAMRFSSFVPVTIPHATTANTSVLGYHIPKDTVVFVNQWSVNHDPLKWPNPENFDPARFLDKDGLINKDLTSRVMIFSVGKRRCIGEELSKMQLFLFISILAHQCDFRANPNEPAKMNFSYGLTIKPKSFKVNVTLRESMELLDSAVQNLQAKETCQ

Cytochrome P450 1A1 = molecular target: T2, Cytochrome P450 1A1 (Homo sapiens, UniProt P04798); test: Inhibition of ethoxyresorufin O-deethylation (EROD) in bicistronic bacterial membranes epressing human cytochrome P450 1A1; type: ADME, cell membranes
T2 sequence (P04798 whole entry): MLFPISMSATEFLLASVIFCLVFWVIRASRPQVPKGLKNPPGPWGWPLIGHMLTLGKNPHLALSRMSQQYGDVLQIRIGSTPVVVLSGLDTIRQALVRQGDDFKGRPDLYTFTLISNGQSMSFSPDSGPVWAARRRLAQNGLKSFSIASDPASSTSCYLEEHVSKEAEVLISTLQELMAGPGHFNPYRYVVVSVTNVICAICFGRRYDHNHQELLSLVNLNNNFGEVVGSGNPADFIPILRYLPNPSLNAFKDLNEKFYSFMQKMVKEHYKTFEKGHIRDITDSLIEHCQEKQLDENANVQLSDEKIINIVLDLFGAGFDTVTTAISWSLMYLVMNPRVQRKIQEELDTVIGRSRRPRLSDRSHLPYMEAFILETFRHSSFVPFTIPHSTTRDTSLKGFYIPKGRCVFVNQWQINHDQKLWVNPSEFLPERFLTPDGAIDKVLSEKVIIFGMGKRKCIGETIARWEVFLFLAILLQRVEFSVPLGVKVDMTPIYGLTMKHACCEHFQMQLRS

## COc1cc(/C=C/c2ccc(OC)cc2OC)cc(OC)c1
Cytochrome P450 1B1
  IC50: 6 nM
Cytochrome P450 1A1
  IC50: 300 nM
